A word on the IC50: it is the concentration needed to halve the response being measured.

Sequences of proteins named here, by UniProt entry; tags and fusion partners are left off.
UniProt P22199, whole entry: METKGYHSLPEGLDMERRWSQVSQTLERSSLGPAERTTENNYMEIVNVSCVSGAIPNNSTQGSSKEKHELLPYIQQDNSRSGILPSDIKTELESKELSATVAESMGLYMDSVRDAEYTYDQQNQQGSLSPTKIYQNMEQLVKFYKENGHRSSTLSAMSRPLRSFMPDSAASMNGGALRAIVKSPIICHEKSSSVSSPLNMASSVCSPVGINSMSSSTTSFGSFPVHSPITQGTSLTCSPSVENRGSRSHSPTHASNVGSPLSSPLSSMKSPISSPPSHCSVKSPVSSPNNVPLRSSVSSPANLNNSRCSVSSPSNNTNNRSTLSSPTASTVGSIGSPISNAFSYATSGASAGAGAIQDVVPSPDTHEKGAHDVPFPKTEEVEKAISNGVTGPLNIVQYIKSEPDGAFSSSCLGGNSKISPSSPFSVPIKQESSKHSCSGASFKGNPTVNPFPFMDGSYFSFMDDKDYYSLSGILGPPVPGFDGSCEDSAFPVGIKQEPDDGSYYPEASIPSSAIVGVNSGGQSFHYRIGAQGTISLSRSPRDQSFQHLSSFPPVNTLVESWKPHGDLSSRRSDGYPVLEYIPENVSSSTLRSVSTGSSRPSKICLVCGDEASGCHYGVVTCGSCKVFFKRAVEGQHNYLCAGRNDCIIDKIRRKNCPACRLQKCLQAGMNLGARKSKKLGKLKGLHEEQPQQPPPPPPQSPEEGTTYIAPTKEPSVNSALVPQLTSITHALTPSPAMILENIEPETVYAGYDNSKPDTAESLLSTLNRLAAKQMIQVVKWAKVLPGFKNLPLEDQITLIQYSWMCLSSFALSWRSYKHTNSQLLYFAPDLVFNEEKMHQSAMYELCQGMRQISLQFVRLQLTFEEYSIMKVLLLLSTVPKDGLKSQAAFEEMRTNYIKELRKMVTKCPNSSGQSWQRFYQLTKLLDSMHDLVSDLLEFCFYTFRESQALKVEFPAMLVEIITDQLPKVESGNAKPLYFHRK

This test has as its target aldosterone receptor (Rattus norvegicus, UniProt P22199). The test can be described thus: Binding inhibition test for aldosterone receptor ([3H]aldosterone, rat renal soluble fraction). Particulars: read-out: MR IC50, [3H]aldosterone 2 nM, in the presence of 2 μM RU-486, 4° C. about 18 hours.
As to `COCCN(CCOC)Cc1cc(C(=O)Nc2ccc(S(C)(=O)=O)cc2)ccc1-c1ccccc1OC(F)(F)F`, the IC50 was 170 nM.

Turning to `COc1cc(NC(=O)c2ccc(-c3ccccc3OC(F)(F)F)c(CN3CC[C@@H](F)C3)c2)ccc1S(N)(=O)=O`, the half-maximal inhibitory concentration (IC50) came out at 210 nM.

With `CCCN(CCC)c1cc(C(=O)Nc2ccc(S(N)(=O)=O)c(OC)c2)ccc1-c1ccccc1OC(F)(F)F`, the 50% inhibitory concentration (IC50) was found to be 230 nM.

On to `COc1cc(NC(=O)c2ccc(-c3ccccc3OC(F)(F)F)c(CNCCF)c2)ccc1S(N)(=O)=O`, for which the 50% inhibitory concentration (IC50) was determined as 330 nM.

With `CS(=O)(=O)c1ccc(NC(=O)c2ccc(-c3ccccc3OC(F)(F)F)c(Cn3cnnn3)c2)cc1`, the concentration for half-maximal inhibition (IC50) was < 10000 nM.

On to `COc1cc(NC(=O)c2ccc(-c3ccccc3OC(F)(F)F)c(CNCC(F)F)c2)ccc1S(N)(=O)=O`, for which the IC50 turned out to be 260 nM.

The values are drawn from US20130116227A1, “BIARYL AMIDE DERIVATIVE OR PHARMACEUTICALLY ACCEPTABLE SALT THEREOF” (DAINIPPON SUMITOMO PHARMA CO., LTD., priority 2010, published 2013).
